Test system: NG4TL4-WT tumor
Experiment: Biodistribution study in tumor-bearing mice
Type: in vivo
Details: 1 h; 80~90 μCi tail vein; FVB/N mice with NG4TL4-WT tumor
Source text: […] Tumor and 13 other tissures (blood, heart, lung, liver, stomach, small intestine, large intestine, spleen, pancreas, kidney, bone, marrow, and muscle) were removed, rinsed, weighed, and determined for radioactivity with a γ scintilation counter. Uptake of the radioactive trancers in the tissues (counts per min) was calibrated against decay, normalizedto sample weight, and expressed as percentages of injected dosage per gram of tissue (% ID/g) and aggregation ratio of tumor to blood.

Question: For `O=c1[nH]c(=O)n([C@H]2C[C@H](O)[C@@H](CO)O2)cc1[131I]` [^131I-IUdR, 5-[^124/131I]iodo-2′-deoxyuridine], which “Biodistribution Stomach” value is on record?
Answer: 6.18 ± 1.51 % ID/g

Reference: patent US20140221639A1, “RADIOLABELED NUCLEOSIDE ANALOGUE, AND PREPARATION METHOD AND USE THEREOF” (Institute of Nuclear Energy Research Atomic Energy Council, …, priority 2011, published 2014)
